Experiment [1] has as its target Mu-type opioid receptor (Rattus norvegicus) (UniProt P33535). Description: Agonist activity at rat MOR expressed in CHO cell membranes assessed as maximal activity after 1 hr by [35S]GTPgammaS binding assay relative to control. The conditions noted are these: Cell membrane, filed as agonist. For orientation: GTPγS resists hydrolysis and so accumulates on activated G proteins.

The chains behind the UniProt entries cited, without tags or fusion partners.
UniProt P33535, whole entry: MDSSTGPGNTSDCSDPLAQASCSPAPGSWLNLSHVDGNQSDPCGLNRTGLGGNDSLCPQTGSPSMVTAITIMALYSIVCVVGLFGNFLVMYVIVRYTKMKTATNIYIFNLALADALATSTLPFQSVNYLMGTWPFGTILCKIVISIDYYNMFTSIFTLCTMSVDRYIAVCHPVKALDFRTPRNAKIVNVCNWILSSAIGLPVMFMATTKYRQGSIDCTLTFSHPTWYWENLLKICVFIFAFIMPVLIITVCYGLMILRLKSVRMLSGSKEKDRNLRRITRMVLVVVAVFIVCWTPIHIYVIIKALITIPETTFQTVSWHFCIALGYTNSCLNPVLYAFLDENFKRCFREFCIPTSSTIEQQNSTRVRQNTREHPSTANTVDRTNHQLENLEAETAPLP

The species entered for a further experiment is Homo sapiens. Briefly: Selectivity index, ratio of Ki for displacement of [3H]DAMGO from rat MOR expressed in CHO cell membranes to Ki for displacement of [3H]U69593 from human KOR expressed in CHO cell membranes. For orientation: Displacement assays read how much labelled ligand stays bound in the presence of the test substance.

For two compounds, Emax and Ratio Ki results are on record in ChEMBL document CHEMBL5137076, “SLL-627 Is a Highly Selective and Potent κ Opioid Receptor (KOR) Agonist with an Unexpected Nonreduction in Locomotor Activity” (2022).

For `COc1cccc(C(=O)[C@]2(C)C[C@@]34CC[C@]2(OC)[C@@H]2Oc5c(OC)ccc6c5[C@@]23CCN(CC2CC2)[C@@H]4C6)c1`, the Emax (as a rule, the greatest response seen or fitted, relative to the assay's reference) in experiment [1] came to 249%.
On to `COc1ccc2c3c1O[C@H]1[C@@]4(OC)CC[C@@]5(C[C@@]4(C)[C@H](O)c4ccc(C(C)C)cc4)[C@@H](C2)N(CC2CC2)CC[C@]315`, for which the Ratio Ki in the experiment filed under Homo sapiens was determined as 0.3.
